Experimental data published in US10407430B2, “Janus kinase 1 selective inhibitor and pharmaceutical use thereof” (YANG JI CHEMICAL CO., LTD., priority 2015, dated 2019).

Amino acid sequences for entries named in this document (tags omitted). A change or cut given only in a name is not applied to a line headed by its entry.
UniProt P23458: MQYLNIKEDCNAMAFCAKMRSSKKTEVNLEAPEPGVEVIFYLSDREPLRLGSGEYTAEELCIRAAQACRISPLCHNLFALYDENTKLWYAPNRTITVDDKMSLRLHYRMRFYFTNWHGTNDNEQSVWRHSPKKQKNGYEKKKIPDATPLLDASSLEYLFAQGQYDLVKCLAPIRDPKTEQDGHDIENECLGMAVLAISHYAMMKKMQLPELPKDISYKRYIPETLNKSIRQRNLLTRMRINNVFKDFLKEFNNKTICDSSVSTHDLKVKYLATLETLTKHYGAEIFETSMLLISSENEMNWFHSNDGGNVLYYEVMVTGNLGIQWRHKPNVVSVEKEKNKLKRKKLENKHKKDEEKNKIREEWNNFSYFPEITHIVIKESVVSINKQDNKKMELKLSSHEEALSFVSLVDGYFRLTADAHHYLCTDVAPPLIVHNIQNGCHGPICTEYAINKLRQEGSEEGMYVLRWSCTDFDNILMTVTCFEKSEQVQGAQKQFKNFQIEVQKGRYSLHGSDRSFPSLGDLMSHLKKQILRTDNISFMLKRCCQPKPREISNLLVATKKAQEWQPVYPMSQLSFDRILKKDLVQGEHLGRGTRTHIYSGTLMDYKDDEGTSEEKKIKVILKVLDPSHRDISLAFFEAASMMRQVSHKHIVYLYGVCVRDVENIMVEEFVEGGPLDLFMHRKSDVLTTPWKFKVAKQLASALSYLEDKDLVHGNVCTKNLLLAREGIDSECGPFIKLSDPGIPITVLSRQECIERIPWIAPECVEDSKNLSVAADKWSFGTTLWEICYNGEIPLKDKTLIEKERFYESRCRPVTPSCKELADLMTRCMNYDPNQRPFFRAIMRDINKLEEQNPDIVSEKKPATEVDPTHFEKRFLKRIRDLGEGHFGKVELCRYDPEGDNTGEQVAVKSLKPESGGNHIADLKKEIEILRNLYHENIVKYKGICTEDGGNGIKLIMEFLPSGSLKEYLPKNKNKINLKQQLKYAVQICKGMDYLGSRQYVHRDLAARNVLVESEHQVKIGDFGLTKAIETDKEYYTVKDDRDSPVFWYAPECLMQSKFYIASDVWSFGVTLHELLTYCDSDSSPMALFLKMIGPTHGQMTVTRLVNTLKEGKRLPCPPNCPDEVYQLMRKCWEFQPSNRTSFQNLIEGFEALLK
UniProt O60674: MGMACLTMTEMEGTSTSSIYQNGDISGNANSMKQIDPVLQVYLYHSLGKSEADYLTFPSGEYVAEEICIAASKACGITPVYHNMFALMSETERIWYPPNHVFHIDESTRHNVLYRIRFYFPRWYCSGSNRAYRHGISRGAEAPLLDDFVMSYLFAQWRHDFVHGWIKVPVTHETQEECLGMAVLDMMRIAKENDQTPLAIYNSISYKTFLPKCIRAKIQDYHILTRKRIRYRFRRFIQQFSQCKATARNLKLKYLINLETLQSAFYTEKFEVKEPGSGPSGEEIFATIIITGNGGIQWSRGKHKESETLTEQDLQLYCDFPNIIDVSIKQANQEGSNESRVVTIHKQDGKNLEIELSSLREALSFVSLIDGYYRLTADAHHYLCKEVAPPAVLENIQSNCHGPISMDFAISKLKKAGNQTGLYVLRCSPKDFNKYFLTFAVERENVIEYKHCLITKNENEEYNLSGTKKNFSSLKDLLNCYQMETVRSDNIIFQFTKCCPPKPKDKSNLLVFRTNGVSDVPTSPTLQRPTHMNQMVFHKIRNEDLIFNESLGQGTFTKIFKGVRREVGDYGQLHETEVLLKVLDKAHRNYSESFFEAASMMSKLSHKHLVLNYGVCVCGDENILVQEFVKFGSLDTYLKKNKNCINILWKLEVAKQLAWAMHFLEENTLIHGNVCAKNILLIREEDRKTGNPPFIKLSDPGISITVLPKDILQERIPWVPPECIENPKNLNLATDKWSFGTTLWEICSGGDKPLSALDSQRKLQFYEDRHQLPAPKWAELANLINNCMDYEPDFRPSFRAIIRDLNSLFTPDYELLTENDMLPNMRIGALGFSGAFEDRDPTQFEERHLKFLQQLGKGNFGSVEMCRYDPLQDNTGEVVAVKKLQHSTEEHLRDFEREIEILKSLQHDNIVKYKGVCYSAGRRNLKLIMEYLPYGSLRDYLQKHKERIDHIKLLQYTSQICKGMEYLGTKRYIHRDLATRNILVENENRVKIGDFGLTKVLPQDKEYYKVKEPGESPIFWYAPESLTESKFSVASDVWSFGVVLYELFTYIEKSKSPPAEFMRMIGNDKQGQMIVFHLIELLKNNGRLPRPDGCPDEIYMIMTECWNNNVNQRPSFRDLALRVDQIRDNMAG

Key:
Format in all cases: biochemical
[1] = target: T1, Human JAK1 (Homo sapiens, UniProt P23458); assay: In-vitro kinase inhibition test, JAK1
T1 construct: purchased Millipore, Germany

[2] = target: T2, Human JAK2 (Homo sapiens, UniProt O60674); assay: In-vitro kinase inhibition test, JAK2
T2 construct: purchased Millipore, Germany

[3] = target: T3, Human JAK3 (Homo sapiens, UniProt P52333); assay: In-vitro kinase inhibition test, JAK3
T3 construct: purchased Millipore, Germany
T3 sequence (P52333 1-1124): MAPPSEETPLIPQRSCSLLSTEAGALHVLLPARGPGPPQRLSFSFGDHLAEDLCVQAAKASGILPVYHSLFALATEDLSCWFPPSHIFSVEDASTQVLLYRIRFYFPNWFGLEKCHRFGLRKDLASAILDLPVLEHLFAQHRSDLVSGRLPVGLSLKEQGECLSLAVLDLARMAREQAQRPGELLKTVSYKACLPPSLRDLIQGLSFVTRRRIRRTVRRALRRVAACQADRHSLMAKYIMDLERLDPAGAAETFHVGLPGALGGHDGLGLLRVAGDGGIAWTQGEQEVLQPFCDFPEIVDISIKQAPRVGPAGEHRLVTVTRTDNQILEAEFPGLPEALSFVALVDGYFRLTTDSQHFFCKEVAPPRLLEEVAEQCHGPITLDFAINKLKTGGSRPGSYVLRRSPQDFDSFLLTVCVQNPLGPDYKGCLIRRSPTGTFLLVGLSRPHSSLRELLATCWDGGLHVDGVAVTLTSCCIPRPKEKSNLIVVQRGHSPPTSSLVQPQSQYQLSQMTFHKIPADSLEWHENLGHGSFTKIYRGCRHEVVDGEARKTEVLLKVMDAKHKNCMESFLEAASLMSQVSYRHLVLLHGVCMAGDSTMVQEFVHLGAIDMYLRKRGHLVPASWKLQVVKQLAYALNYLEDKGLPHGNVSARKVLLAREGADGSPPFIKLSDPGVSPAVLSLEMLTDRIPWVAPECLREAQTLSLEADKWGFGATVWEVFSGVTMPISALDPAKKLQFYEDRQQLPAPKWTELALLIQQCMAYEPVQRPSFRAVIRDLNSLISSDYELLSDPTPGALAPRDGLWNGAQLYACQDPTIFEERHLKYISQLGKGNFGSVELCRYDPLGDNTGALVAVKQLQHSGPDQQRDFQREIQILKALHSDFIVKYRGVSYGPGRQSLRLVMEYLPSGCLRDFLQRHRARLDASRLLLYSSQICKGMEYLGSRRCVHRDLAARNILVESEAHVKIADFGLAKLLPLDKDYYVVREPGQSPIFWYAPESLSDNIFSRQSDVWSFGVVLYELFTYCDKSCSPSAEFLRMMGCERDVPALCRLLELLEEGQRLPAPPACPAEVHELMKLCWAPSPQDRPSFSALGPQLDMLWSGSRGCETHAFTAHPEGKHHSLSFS

Work on `CN(c1ncnc2[nH]ccc12)[C@@H]1CCN(C(=O)CC#N)C1` [Example 1, (R)-3-(3-(methyl(7H-pyrrolo[2,3-d]pyrimidine-4-yl)amino)pyrrolidine-1-yl)-3-oxopropanenitrile] yielded an IC50 [1] of 18.8 nM, an IC50 [2] of 128 nM and an IC50 [3] of over 1000 nM.
